This is an account of results in ChEMBL document CHEMBL1145288, “5-substituted, 6-substituted, and unsubstituted 3-heteroaromatic pyridine analogues of nicotine as selective inhibitors of cytochrome P-450 2A6” (J Med Chem, 2005).

Sequences of proteins named here, by UniProt entry; tags and fusion partners are left off.
UniProt P08684, whole entry: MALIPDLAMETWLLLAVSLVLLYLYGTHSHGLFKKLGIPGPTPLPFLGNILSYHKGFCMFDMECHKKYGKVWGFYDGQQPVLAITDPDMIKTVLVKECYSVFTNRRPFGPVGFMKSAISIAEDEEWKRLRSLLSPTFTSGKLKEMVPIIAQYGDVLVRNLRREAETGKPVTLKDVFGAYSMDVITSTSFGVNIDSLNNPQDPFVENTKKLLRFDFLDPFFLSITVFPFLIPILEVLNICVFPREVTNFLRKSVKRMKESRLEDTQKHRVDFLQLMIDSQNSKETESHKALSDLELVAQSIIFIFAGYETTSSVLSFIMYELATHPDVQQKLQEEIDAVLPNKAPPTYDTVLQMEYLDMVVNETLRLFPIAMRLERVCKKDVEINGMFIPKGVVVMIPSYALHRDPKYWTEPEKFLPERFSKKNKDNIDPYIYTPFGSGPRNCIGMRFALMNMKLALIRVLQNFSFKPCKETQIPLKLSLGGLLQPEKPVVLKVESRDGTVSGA

Molecules are shown by their SMILES. Where only a bound is given, the exact number is not on record here.

In data set [1] the test system is CYP2B6 versus CYP2A6. Nature of the data set: Ratio of inhibition of human cytochrome P-450 2B6 to 2A6 was determined; Expressed as IC50(CYP2B6)/IC50(CYP2A6).
For data set [2], the system named is CYP2E1 versus CYP2A6. Briefly: Ratio of inhibition of human cytochrome P-450 2E1 to 2A6 was determined; Expressed as IC50(CYP2E1)/IC50(CYP2A6).
The target in data set [3] is Cytochrome P450 3A4 (Homo sapiens, UniProt P08684). Nature of the data set: Inhibitory concentration value against human cytochrome P-450 3A4.

With `O/N=C\c1ccc(-c2cccnc2)o1`, the selectivity ratio is 30 in data set [1] and more than 95 in data set [2].
For orientation: IC50 means the midpoint of a concentration-inhibition curve. A high value points to weaker potency. In data set [3], `c1cncc(-c2cccs2)c1` gave an IC50 of 57 µM.
